Source: PMC10041525, “New Dual Inhibitors of Bacterial Topoisomerases with Broad-Spectrum Antibacterial Activity and In Vivo Efficacy against Vancomycin-Intermediate Staphylococcus aureus” (Journal of Medicinal Chemistry, 2023)

Test system: Chinese hamster ovary K1 cells
Assay: in vitro micronucleus test
Settings: without S9, 1 µM

In the case of `CO[C@@]12[C@H](COC(N)=O)C3=C(C(=O)C(C)=C(N)C3=O)N1C[C@@H]1N[C@@H]12` [Mitomycin C], the “% Cytostasis” value is reported as 41.6%.
